Target: EGFR kinase (Homo sapiens, UniProt P00533)
Assay: Luminescence ADP production kinase assay, EGFR
Assay type: biochemical

Sequences of proteins named here, by UniProt entry; tags and fusion partners are left off. Residues count along the entry.
UniProt P00533, 25-1210: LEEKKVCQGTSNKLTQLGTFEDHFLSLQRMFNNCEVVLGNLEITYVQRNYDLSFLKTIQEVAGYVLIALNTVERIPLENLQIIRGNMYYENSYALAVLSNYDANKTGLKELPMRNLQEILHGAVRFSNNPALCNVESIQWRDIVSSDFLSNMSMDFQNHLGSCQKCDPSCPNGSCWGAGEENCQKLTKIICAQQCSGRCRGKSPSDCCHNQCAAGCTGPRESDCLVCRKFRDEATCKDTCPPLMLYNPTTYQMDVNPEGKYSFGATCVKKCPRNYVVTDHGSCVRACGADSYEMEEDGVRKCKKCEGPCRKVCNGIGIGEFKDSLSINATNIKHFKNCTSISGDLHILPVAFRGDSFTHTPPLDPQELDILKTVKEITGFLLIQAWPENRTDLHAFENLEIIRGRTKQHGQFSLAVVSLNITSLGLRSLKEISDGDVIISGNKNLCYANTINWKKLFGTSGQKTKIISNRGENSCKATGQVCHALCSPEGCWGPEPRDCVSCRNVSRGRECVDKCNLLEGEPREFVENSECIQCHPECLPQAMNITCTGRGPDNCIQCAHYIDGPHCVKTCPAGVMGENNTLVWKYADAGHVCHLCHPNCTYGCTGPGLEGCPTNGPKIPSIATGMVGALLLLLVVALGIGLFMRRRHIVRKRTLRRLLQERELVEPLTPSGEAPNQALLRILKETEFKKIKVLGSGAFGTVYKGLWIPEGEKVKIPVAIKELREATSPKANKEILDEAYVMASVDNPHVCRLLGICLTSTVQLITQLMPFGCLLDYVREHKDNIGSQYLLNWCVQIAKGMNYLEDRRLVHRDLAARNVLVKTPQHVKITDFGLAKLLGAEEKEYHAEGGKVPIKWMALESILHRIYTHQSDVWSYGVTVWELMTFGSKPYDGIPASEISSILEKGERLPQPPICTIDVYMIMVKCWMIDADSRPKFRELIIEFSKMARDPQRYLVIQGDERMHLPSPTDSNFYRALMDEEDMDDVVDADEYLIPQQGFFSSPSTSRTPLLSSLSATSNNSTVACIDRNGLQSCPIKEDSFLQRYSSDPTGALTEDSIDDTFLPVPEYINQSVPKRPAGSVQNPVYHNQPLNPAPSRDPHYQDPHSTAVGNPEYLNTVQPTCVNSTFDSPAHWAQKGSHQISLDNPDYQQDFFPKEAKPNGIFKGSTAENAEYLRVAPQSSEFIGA

IC50: < 10 nM
SMILES: COc1cc2ncnc(Nc3cccc(Cl)c3)c2cc1OC [Tyrphostin AG 1478]
